# Assay results from US20260382584A1, “TEAD- AND HER2-INHIBITOR COMBINATIONS FOR TREATING CANCER” (published 2026).
# Columns and labels:
# [1] = test system: SNU-216 cells; test: CellTiterGlo in vitro viability, gastric cancer cell line SNU-216 (6-day); conditions: 6-day treatment, alone
# [2] = test system: NCI-H2170 cells; test: CellTiterGlo in vitro viability, non-small cell lung cancer cell line NCI-H2170 (6-day); conditions: 6-day treatment, alone
# [3] = test system: NCI-N87 HER2-amplified gastric cancer xenograft tumors; test: NCI-N87 HER2-amplified gastric cancer xenograft model in mice
# [4] = test system: EFM192A cells; test: CellTiterGlo in vitro viability, breast (HR+/HER2+) cancer cell line EFM192A; conditions: 6-day treatment, alone
SMILES,"growth inhibition, single agent [1]","growth inhibition, single agent [2]","tumor response ([3]; Compound E p.o., hIgG1 and Trastuzumab i.p.)",mean tumor volume ([3]; day 26) [mm^3],"growth inhibition, single agent [4]"
Cc1ccc(C2CC(Br)=NO2)cc1Oc1ccc(Cl)cc1 (centres unmarked),not by Compound D (at least outside very high concentrations of Compound D),not by Compound D (at least outside very high concentrations of Compound D),,,
CC(NC(=O)c1ccc2c(-c3ccc(C(F)(F)F)cc3)cccc2c1)c1ccccn1 (centres unmarked),not by Compound B alone,not by Compound B alone,,,
CNC[C@]1(c2ccccc2)Oc2cc(F)c(Cl)c(-c3c(C(N)=O)ccc(OC)c3F)c2[C@@H]1C,inhibited,inhibited,,,
C[C@H](O)COc1ccc(C(N)=O)c(-c2c(Cl)c(F)cc3c2[C@H](C)[C@@](CN[C@H]2CC[C@](C)(O)CC2)(c2ccccc2)O3)c1F,,,tumor stasis,279,
C[C@]12CC[C@@H]3c4ccc(O)cc4C[C@@H](CCCCCCCCC[S+]([O-])CCCC(F)(F)C(F)(F)F)[C@H]3[C@@H]1CC[C@@H]2O (some centres unmarked),,,,,no inhibition was achieved
C=CC(=O)Nc1ccc(C)c(Oc2ccc(Cl)cc2)c1,not by Compound C alone (at least outside very high concentrations of Compound C),not by Compound C alone (at least outside very high concentrations of Compound C),,,
